Laboratory results reported in ChEMBL document CHEMBL1147685, “Synthesis and SAR of 1,9-dihydro-9-hydroxypyrazolo[3,4-b]quinolin-4-ones as novel, selective c-Jun N-terminal kinase inhibitors” (Bioorg Med Chem Lett, 2006).

By UniProt entry, the sequences of proteins in these tests, tags left out. Where a name states a change or a piece, a line headed by the entry shows the natural chain unless it says otherwise.
UniProt P45983: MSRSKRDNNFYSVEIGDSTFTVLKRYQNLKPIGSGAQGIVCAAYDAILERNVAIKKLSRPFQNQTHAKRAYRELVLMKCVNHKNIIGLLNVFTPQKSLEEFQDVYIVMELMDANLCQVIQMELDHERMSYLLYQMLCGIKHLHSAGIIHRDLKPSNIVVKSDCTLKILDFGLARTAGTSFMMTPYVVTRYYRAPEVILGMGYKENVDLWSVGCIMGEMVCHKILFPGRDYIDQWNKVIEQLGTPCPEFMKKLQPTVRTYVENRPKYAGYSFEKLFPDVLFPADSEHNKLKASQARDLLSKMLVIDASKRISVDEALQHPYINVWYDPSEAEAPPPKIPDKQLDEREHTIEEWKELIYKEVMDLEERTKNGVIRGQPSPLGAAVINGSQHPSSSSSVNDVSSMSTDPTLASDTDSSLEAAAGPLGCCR

Target: Mitogen-activated protein kinase 8 (Homo sapiens, UniProt P45983)
Assay: Inhibition of JNK1

Cc1nn(C)c2c1c(=O)c1cc(Cl)ccc1n2O gave an IC50 of 1.22 µM.
